Experimental data reported in patent US20260240844A1, “INHIBITORS OF CHD1L AND USES THEREOF” (The Regents of the University of Colorado, a body corporate, priority 2023, published 2026).

What was measured:
CHD1L = biological target: T1, CHD1L (Homo sapiens, UniProt Q86WJ1); test: CHD1L trapping (in situ subcellular fractionation, immunofluorescence); type: cell-based; conditions: single agent; for CHD1L trapping relative to the baseline (doxorubicin control): 24 hours (Example 13)
T1 sequence (Q86WJ1 1-897): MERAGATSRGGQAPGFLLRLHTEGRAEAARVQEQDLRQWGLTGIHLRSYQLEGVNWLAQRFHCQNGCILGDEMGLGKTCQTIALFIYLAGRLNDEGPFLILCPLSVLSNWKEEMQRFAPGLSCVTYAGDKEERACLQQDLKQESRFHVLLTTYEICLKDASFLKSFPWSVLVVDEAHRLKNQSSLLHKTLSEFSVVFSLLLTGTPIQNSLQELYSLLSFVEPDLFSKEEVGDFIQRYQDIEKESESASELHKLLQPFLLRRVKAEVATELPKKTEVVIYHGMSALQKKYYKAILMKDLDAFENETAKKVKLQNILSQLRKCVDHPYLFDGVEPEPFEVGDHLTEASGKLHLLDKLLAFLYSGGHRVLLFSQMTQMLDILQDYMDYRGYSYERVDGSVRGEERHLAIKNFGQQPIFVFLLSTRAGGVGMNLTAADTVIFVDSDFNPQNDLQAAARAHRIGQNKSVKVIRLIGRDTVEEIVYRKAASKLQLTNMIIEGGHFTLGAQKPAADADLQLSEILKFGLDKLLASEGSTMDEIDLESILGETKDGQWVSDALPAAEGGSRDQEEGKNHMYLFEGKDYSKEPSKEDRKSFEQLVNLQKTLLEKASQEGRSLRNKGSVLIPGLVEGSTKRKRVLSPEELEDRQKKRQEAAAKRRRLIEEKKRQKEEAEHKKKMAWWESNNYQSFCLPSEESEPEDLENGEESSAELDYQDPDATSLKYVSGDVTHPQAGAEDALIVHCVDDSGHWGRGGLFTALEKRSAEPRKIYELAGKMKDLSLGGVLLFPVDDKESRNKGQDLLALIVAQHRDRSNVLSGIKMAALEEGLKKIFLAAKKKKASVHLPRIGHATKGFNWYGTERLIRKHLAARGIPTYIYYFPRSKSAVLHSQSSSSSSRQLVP
Source text: Other studies on the role of CHD1L used cell lines with knockdown or knockouts of the gene encoding for CHD1L and have never been able to study the result of its enzymatic inhibition.

cat-CHD1L = biological target: T2, cat-CHD1L (Homo sapiens, UniProt Q86WJ1); test: CHD1L ATPase assay measured by ADP-Glo; type: biochemical
T2 construct: made in house; host or cells: Rosetta 2 (DE3) pLysS cells (E. coli)
T2 sequence (Q86WJ1 16-619): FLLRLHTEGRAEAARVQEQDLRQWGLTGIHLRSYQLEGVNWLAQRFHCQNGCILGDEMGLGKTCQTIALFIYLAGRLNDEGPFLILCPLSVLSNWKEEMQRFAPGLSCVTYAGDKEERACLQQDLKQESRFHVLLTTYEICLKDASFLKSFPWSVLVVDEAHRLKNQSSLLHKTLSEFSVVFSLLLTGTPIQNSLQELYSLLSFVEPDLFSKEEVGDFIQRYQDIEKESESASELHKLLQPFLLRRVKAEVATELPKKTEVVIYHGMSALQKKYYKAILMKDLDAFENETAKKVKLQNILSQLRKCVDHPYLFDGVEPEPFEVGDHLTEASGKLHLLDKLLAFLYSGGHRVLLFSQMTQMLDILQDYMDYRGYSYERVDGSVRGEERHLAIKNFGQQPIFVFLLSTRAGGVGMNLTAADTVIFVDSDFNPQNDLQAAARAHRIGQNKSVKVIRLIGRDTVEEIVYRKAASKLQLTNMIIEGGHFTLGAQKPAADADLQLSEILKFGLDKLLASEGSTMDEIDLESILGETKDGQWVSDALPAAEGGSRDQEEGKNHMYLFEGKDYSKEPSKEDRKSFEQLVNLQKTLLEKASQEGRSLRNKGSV

cat-CHD1L-K272A = cat-CHD1L-K272A (Homo sapiens, UniProt Q86WJ1, K272A); conditions: Lys-to-Ala (K272A) mutation, ATPase function preserved
Pharmacokinetics in mice = conditions: mouse, in vivo, po

Row | Compound | CHD1L trapping relative to the baseline (doxorubicin control) (CHD1L) | inhibition of CHD1L ATPase activity (cat-CHD1L) | CHD1L trapping onto chromatin/nucleosomes (CHD1L; SUM149PT + 0.01% MMS 4 h, BC and CRC cells) | inhibitory activity on K272A mutant (cat-CHD1L-K272A) | half-life (Pharmacokinetics in mice)
1 | Cc1cc(Nc2ccc(NC(=O)Cc3c[nH]c4cc(Cl)ccc34)cc2)nc(N2CCCC2)n1 [Compound 7, 2-(6-chloro-1H-indol-3-yl)-N-(4-((6-methyl-2-(pyrrolidin-1-yl)pyrimidin-4-yl)amino)phenyl)acetamide] | about 5 fold |  |  |  | 
2 | Cc1cc(Nc2ccc(NC(=O)Cc3cc(Br)cs3)cc2)nc(N2CCCC2)n1 [Compound 6.11, 2-(4-bromothiophen-2-yl)-N-(4-((6-methyl-2-(pyrrolidin-1-yl)pyrimidin-4-yl)amino)phenyl)acetamide] | about 3 fold | potent nM dose-dependent inhibition | dose-dependent increase in CHD1L trapping | abolishes Compound 6.11's inhibitory activity | 8 h
